According to ChEMBL document CHEMBL3286203, “Reactive oxygen species (ROS) inducible DNA cross-linking agents and their effect on cancer cells and normal lymphocytes” (J Med Chem, 2014):

What was measured:
Assay type in all cases: functional, cell-based
SR = assay: Cytotoxicity against human SR cells assessed as growth inhibition at 10 uM after 48 hrs by SRB assay
Method in brief: (§1)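 NCI-60 DTP human tumour line screen. Cells grown in RPMI 1640 with 5% fetal bovine serum and 2 mM L-glutamine, plated at 5000–40 000 cells/well according to doubling time. Single dose of 10 μM for 48 h at 37 °C, 5% CO2, 95% air, 100% humidity, two plates per line. Read-out is growth percent.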

SK-MEL-5 = assay: Cytotoxicity against human SK-MEL-5 cells assessed as growth inhibition at 10 uM after 48 hrs by SRB assay
Method in brief: (§2)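 Single-dose screen run by the NCI Developmental Therapeutics Program (NCI-60). Cells were grown in RPMI 1640 with 5% fetal bovine serum and 2 mM L-glutamine. They were plated at 5000–40 000 cells/well, depending on doubling time. Each line was run in two plates and exposed to 10 μM drug for 48 h at 37 °C, 5% CO2, 100% humidity. Read-out was growth percent.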

EKVX = assay: Cytotoxicity against human EKVX cells assessed as growth inhibition at 10 uM after 48 hrs by SRB assay
Method in brief: (§3)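 NCI DTP 60-cell-line screen run at the NCI. Cells were grown in RPMI 1640 with 5% FBS and 2 mM L-glutamine. They were seeded at 5000–40 000 cells/well depending on doubling time and grown in two plates per line. Each was exposed to a single 10 μM dose for 48 h at 37 °C, 5% CO2, 95% air, 100% humidity. Read-out was percent growth.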

HOP-92 = assay: Cytotoxicity against human HOP92 cells assessed as growth inhibition at 10 uM after 48 hrs by SRB assay; method in brief: as §3
DU-145 = assay: Cytotoxicity against human DU145 cells assessed as growth inhibition at 10 uM after 48 hrs by SRB assay; method in brief: as §3
LOX IMVI = assay: Cytotoxicity against human LOXIMVI cells assessed as growth inhibition at 10 uM after 48 hrs by SRB assay; method in brief: as §3
OVCAR-8 = assay: Cytotoxicity against human OVCAR8 cells assessed as growth inhibition at 10 uM after 48 hrs by SRB assay; method in brief: as §2
K562 = assay: Cytotoxicity against human K562 cells assessed as growth inhibition at 10 uM after 48 hrs by SRB assay; method in brief: as §3
PC-3 = assay: Cytotoxicity against human PC3 cells assessed as growth inhibition at 10 uM after 48 hrs by SRB assay; method in brief: as §2
SNB-75 = assay: Cytotoxicity against human SNB75 cells assessed as growth inhibition at 10 uM after 48 hrs by SRB assay; method in brief: as §1

Measured: growth inhibition (GI)

OB(O)c1ccc(N(CCCl)CCCl)cc1
active: SR | SK-MEL-5 | EKVX | HOP-92 | DU-145 | LOX IMVI | OVCAR-8 | K562 | PC-3 | SNB-75

The source made the active and inactive calls.
